Patent EP1530968A1, “Galangin components for the maintenance of bone health and/or treatment, alleviaton and/or prevention of bone disorder” (N.V. Nutricia, priority 2003, dated 2005)
Marks after values point to notes of the source that are not given here.

How the values were obtained:
[1] = tested on: estrogen receptor (ERE) and BMP receptor (BRE); assay: Ratio ERE stimulation/BRE stimulation (ERE/BRE ratio) in KS483 cells; type: cell-based, mouse
Procedure: Mouse pre-osteoblastic cell line KS483 was maintained in phenol red-free α-MEM containing 10% non-charcoal-treated FBS and penicillin/streptomycin. Cells were seeded in 24-well plates at a density of 1.6x10^4 cells/well, and cultured in phenol red-free α-MEM supplemented with penicillin/streptomycin and 10% charcoal-treated FBS. After 24 hours, cells were transiently transfected with 0.25 µg luciferase reporter (see below) using a lipid-based FuGENE 6 transfection reagent according to the manufacturer's recommendations (Roche, Almere, Netherlands). Cells were transfected with luciferase reporter, i.e. either estrogen-receptor-responsive element (ERE-Luciferase) or BMP-receptor-responsive element (BRE-Luciferas), hereinafter jointly referred to as luciferase reporter. Transfection efficiency was measured by co-transfection of 25 ng of SV40-Renilla control vector.. […] Luciferase activity was determined by measuring bioluminescence. Luciferase activity was expressed as fold induction ± SEM, which was corrected for transfection efficiency using sv40-renilla luciferase activity. The measured luciferase activity is indicative for the extent of stimulation of the estrogen receptor or BMP receptor by the test component. Subsequently the ratio ERE stimulation/BRE stimulation (ERE/BRE ratio) was determined, which is indicative for the estrogenic effects of the test component (Table 3).

[2] = tested on: KS483 (mouse pre-osteoblastic cell line); assay: Calcium deposition in KS483 cells (cresolphthalein complexon method); type: cell-based; conditions: 18 days, compared to control levels
Procedure: KS483 (mouse pre-osteoblastic cell line, Leids Universitair […] Centrum, Leiden, The Netherlands) was maintained in phenol red-free alpha-minimum essential medium (α-MEM) containing 10% non-charcoal-treated fetal bovine serum (FBS) and penicillin/streptomycin. Cells were seeded in 12-well plates at a density of 4.5x10^4 cells/well, and cultured in phenol red-free α-MEM supplemented with penicillin/streptomycin and 10% charcoal-treated FBS. Cells were exposed to vehicle (0.01 wt.% DMSO) , β-estradiol as a positive control (10^-8 M and 10^-9 M in 0.01 wt.% DMSO) or galangin (10^-5 M, 10^-6 M and 10^-7 M in 0.01 wt.% DMSO) for 18 days. From day 4 ascorbic acid (50μg/ml), and from day 11 β-glycerolphosphate (5mM) were added to the culture medium. Every 3-4 days the medium was changed. […] Alkaline phosphatase (ALP) activity was determined kinetically in 25μl aliquots by colorimetric determination of the produced p-nitrophenol at 405 nm, using 6 mmol/L p-nitrophenylphosphate as a substrate at a 37°C and pH 10.5. To correct the ALP activity determination for cell quantity, the DNA content was measured in 100μl aliquots, using Hoechst 33258 and calibrated against a DNA standard (0.5-10μg/mL salmon sperm DNA). Fluorescence was measured at a wavelength of 355-460 nm. […]

Compound: C[C@]12CC[C@@H]3c4ccc(O)cc4CC[C@H]3[C@@H]1CC[C@@H]2O [β-E, 17 β-estradiol]
- ERE/BRE ([1]; 10^-9M, ratio ERE stimulation/BRE stimulation): 10.2
- ERE/BRE ratio ([1]; result in words, galangin as compared to kaempherol and quercetin): high
- Fold increase of calcium (mean ± SEM) ([2]; 10^-8M): 1.9 ± 0.120^a fold induction
- Fold increase of calcium (mean ± SEM) ([2]; 10^-9M): 1.3 ± 0.064 fold induction
